# Measured affinities in a library of Ab-95 light chain variants

From the AlphaSeq antibody data of Engelhart et al. 2022 (doi:10.1038/s41597-022-01779-4), copy in the FLAb collection.

Target: peptide PDVDLGDISGINAS, taken from heptad repeat 2 (HR2) of SARS-CoV-2 spike.

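The library (AAYL52) carries one to three amino acid substitutions per variant, with no insertions or deletions. The scFvs were displayed on barcoded MATa yeast, the peptide on MATalpha yeast. Binding brings cells together so that they mate, and sequencing counts the barcode pairs among the diploids. The ratio of observed to expected reads was calibrated, replicate by replicate, on BCL2-family standards whose Kd was known from biolayer interferometry. Each pool was mated in three replicate cultures.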

Each scFv is VH, three GGGGS repeats, VL, as in the parent Ab-95, and differs from it in the CDRs of the light chain only.
VH: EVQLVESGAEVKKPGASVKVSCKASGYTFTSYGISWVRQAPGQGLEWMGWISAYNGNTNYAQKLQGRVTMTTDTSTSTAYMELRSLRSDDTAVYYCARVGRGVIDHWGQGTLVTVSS
VL: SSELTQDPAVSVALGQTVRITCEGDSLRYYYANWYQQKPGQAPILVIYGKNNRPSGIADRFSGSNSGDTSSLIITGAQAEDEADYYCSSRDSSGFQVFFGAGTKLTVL

Positions count from residue 1 of the parent VL; S89M puts M in place of S. The read-out is the apparent dissociation constant on a log10 scale (nM): the lower, the stronger. Averages over replicates are reported, and they cover detected replicates only. "no signal" means that the variant was in the library but no mating with the target was seen in any replicate; the authors take this as a sign of poor binding, and no number exists. Empty control strains, which show no peptide, gave a signal in 28% of pairings with library AAYL52; the median was 3.91 and 95% of these signals were weaker than 2.90. No background was subtracted.

Variant S89M/S93C gave 3.18 (3 of 3 replicates).
Variant S26K/R28M/P54Y gave 3.50 (3 of 3 replicates).
Variant S55M/S88A/G94P gave no signal (0 of 3 replicates).
Variant A32W/N51A/Q96T gave 4.79 (1 of 3 replicates).
Variant Y29A/R53I/R90F gave 3.62 (3 of 3 replicates).
Variant E23N/L27Y/N33F gave 2.48 (3 of 3 replicates).
Variant G49E/N51M/N52G gave 3.67 (3 of 3 replicates).
Variant Y31D/A32T/G94V gave 1.51 (3 of 3 replicates).
Variant E23M/R53F/V97C gave 3.84 (1 of 3 replicates).
Variant Y29C/N51G/P54M gave 4.61 (3 of 3 replicates).
Variant S26V/A32I/F95Y gave 5.13 (1 of 3 replicates).
Variant E23F/N51C/S88V gave 3.89 (2 of 3 replicates).
Variant S26Y/Y29K/V97P gave 3.58 (2 of 3 replicates).
Variant D25E/L27A/S93A gave 3.29 (2 of 3 replicates).
Variant R28L/S92I/G94D gave 1.49 (3 of 3 replicates).
Variant E23L/Y31V/D91S gave 2.63 (3 of 3 replicates).
Variant Y29N/Y30P/Y31M gave 1.87 (3 of 3 replicates).
Variant L27K/R28K/S88C gave 3.57 (2 of 3 replicates).
Variant S89G/D91H/G94K gave no signal (0 of 3 replicates).
Variant G24V/R53S/S55I gave 4.35 (1 of 3 replicates).
Variant D25L/A32C/R53C gave 4.29 (2 of 3 replicates).
Variant R53M/Q96I/V97L gave 4.03 (3 of 3 replicates).
Variant G24W/K50N/F95P gave 5.60 (1 of 3 replicates).
Variant L27T/A32G/S55C gave 5.54 (2 of 3 replicates).
Variant G24Q/Y29G/G94T gave 4.17 (3 of 3 replicates).
Variant L27K/Y31C/N52W gave no signal (0 of 3 replicates).
Variant Y29S/S55V/R90C gave 2.57 (1 of 3 replicates).
Variant P54S/R90L/G94M gave no signal (0 of 3 replicates).
Variant R28V/G94D/F98Y gave 4.31 (1 of 3 replicates).
Variant D25C/N51G gave 3.17 (2 of 3 replicates).
Variant D25K/N33A gave 4.47 (2 of 3 replicates).
Variant G24N/N52P/R53A gave 3.69 (2 of 3 replicates).
Variant Y29D/S89M gave 2.62 (3 of 3 replicates).
Variant S26F/K50Y/N51G gave 3.86 (3 of 3 replicates).
Variant R53W/F95K/V97Q gave 4.73 (1 of 3 replicates).
Variant L27W/S88T gave 3.51 (2 of 3 replicates).
Variant L27V/S92C/S93I gave 3.10 (3 of 3 replicates).
Variant A32K/S88R/F95W gave 3.52 (1 of 3 replicates).
Variant S26M/F95Y/V97F gave 4.06 (2 of 3 replicates).
Variant L27M/S55R/S92Q gave 2.47 (3 of 3 replicates).
Variant Y29N/N51Y gave 2.07 (3 of 3 replicates).
Variant P54G/F98G gave 2.34 (3 of 3 replicates).
Variant Y29C/G94R gave 4.48 (2 of 3 replicates).
Variant R90L/G94K gave 2.22 (3 of 3 replicates).
Variant R53C/R90G/F98T gave 3.99 (2 of 3 replicates).
Variant G24K/K50H/S89C gave 3.80 (1 of 3 replicates).
Variant E23K/D25W/F95V gave 3.27 (3 of 3 replicates).
Variant N33A/R53S/F95L gave 3.33 (3 of 3 replicates).
Variant S88K/F95D/F98I gave 1.59 (3 of 3 replicates).
Variant R28S/R90A gave 1.94 (3 of 3 replicates).
Variant L27G/A32E/G49S gave no signal (0 of 3 replicates).
Variant E23C/S92E/F98Y gave 3.81 (1 of 3 replicates).

The last 6 entries again:

{"changes": "E23K/D25W/F95V", "mean log10 Kd (nM)": "3.27", "detected": "3 of 3"}
{"changes": "N33A/R53S/F95L", "mean log10 Kd (nM)": "3.33", "detected": "3 of 3"}
{"changes": "S88K/F95D/F98I", "mean log10 Kd (nM)": "1.59", "detected": "3 of 3"}
{"changes": "R28S/R90A", "mean log10 Kd (nM)": "1.94", "detected": "3 of 3"}
{"changes": "L27G/A32E/G49S", "mean log10 Kd (nM)": "no signal", "detected": "0 of 3"}
{"changes": "E23C/S92E/F98Y", "mean log10 Kd (nM)": "3.81", "detected": "1 of 3"}